Results from US8097722B2 (priority 2008, dated 2012).

Target: T1, porcine liver PMPMEase (Sus scrofa, UniProt Q29550)
T1 construct: the supernatant fraction was prepared from 100 g of porcine liver; from tissue; host or cells: porcine liver 40,000×g supernatant
T1 sequence (Q29550 19-566): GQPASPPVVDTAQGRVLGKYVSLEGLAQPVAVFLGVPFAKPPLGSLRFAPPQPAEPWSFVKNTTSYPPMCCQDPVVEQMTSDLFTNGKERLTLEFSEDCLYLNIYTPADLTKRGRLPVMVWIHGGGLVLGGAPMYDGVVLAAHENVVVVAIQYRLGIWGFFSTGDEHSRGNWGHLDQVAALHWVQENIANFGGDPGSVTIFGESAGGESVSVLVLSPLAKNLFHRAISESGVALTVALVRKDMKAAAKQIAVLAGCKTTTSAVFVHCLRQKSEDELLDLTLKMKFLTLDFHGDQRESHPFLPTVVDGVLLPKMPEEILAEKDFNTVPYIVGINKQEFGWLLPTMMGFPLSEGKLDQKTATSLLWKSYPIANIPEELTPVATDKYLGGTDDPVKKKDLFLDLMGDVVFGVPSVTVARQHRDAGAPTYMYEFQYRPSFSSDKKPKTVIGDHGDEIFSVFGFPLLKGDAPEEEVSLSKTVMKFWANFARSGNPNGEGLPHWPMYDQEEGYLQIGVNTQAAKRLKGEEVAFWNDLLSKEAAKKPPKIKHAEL
Experiment: PMPMEase inhibition assay of PMSF, GESF and FESF (IC50)
Type: biochemical

In the case of `O=S(=O)(F)Cc1ccccc1` [Phenylmethylsulfonyl fluoride, phenylmethylsulfonyl fluoride], the IC50 is reported as 16.4 µM.
